# Laboratory results: ChEMBL document CHEMBL1129620 (J Med Chem, 1996)
# Amino acid sequences for entries named in this document (tags omitted).
# UniProt P16257, whole entry, looked up: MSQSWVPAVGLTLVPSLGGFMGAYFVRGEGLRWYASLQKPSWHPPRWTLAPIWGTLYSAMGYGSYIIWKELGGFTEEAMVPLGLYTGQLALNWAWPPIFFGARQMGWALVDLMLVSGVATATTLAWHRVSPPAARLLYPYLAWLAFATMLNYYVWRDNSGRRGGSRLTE
# Target: T1, Translocator protein (Rattus norvegicus, UniProt P16257)
row,SMILES,IC50
1,CN(C)C(=O)OC1=C(c2ccccc2)Oc2ccccc2-n2cccc21,5.1 nM
2,Cc1ccc(C2=C(OC(=O)N(C)C)c3cccn3-c3ccccc3O2)cc1,1.3 nM
3,CN(C)C(=O)OC1=C(c2ccccc2)Oc2cc3ccccc3cc2-n2cccc21,37.3 nM

# Test system: Y-1
# Test: Stimulation of steroid (pregnenolone) biosynthesis in mouse Y-1 adrenocortical cells at 40 uM
row,SMILES,Production
1,CC(=O)OC1=C(c2ccc(C)cc2)Oc2ccccc2-n2cccc21,29.3 ng 2hr-1
2,CCN(CC)C(=O)OC1=C(c2ccc(C)cc2)Oc2ccccc2-n2cccc21,40.4 ng 2hr-1
3,O=C1CN=C(c2ccccc2Cl)c2cc([N+](=O)[O-])ccc2N1,22.1 ng 2hr-1
4,CCC(C)N(C)C(=O)c1cc2ccccc2c(-c2ccccc2Cl)n1 (stereo unspecified),33.2 ng 2hr-1
5,CN(C)C(=O)OC1=C(c2ccc3ccccc3c2)Oc2ccccc2-n2cccc21,27.5 ng 2hr-1
6,CN(C)C(=O)OC1=C(c2ccccc2)Sc2c(Cl)cccc2-n2cccc21,29.3 ng 2hr-1
7,CN1C(=O)CN=C(c2ccc(Cl)cc2)c2cc(Cl)ccc21,29.5 ng 2hr-1

# Target: T1, Translocator protein
# Remark: another data set of the same source
row,SMILES,Ki
1,CN(C)C(=O)OC1=C(c2ccccc2)Oc2cc3ccccc3cc2-n2cccc21,14.5 nM
